Measurements taken from ChEMBL document CHEMBL1143196, “Discovery of kinase inhibitors by high-throughput docking and scoring based on a transferable linear interaction energy model” (J Med Chem, 2008).
pIC50: −log10 of the molar value.

The chains behind the UniProt entries cited, without tags or fusion partners.
UniProt P00533, whole entry: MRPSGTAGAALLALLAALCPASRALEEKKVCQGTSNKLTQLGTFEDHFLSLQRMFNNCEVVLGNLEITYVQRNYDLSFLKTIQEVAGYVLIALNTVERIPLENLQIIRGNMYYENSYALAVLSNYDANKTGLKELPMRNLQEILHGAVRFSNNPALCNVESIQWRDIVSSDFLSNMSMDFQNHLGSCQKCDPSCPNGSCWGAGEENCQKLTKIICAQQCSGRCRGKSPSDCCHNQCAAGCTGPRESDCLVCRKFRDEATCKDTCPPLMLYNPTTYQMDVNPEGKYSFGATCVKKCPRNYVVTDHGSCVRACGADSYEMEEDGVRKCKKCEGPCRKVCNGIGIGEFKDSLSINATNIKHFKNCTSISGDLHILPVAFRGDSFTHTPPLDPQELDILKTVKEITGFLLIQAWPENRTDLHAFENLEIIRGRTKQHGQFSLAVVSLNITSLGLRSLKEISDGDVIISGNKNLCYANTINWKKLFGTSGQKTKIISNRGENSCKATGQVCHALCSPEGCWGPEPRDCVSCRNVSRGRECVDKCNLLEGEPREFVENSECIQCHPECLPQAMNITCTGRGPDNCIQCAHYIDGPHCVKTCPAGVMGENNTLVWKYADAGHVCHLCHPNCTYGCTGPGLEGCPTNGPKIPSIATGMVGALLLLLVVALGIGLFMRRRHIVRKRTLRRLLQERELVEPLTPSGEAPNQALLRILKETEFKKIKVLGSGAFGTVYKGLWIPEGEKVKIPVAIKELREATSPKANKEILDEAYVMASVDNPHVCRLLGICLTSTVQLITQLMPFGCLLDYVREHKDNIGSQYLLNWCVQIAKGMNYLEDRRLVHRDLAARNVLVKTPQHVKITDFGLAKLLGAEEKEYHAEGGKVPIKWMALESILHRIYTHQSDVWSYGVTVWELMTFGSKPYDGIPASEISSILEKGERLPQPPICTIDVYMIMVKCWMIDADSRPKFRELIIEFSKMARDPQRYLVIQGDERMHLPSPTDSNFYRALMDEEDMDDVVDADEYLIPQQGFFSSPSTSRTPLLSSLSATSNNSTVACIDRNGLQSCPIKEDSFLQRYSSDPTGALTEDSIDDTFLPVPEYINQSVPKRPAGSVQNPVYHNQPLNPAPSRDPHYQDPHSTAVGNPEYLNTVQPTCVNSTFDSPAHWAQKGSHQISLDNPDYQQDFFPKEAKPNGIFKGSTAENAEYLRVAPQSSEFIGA

Molecular target: Epidermal growth factor receptor (Homo sapiens, UniProt P00533)

pIC50: 9.50
SMILES: COc1cc2ncnc(Nc3cccc(Cl)c3)c2cc1OC [TYRPHOSTIN AG-1478]
